Legend:
P2X7 [1] = target: T1, P2X7 (Homo sapiens (Human), UniProt Q99572); test: Radioligand binding, tritiated A-804598, human P2X7-1321N1 cell membranes; conditions: 1 hour at 4° C.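 Also: ki obtained from the binding IC50 after correction for tracer concentration and tracer affinity.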
rat P2X7 [2] = target: T2, rat P2X7 (Rattus norvegicus (Rat), UniProt Q64663); test: Radioligand binding, tritiated A-804598, rat P2X7-1321N1 cell membranes; conditions: 1 hour at 4° C.
P2X7 [3] = target: T1, P2X7; test: Ca2+ flux (FLIPR) in 1321N1 cells expressing recombinant human P2X7 channel; format: cell-based; conditions: 250 μM BzATP;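 also: Calcium-4 dye-loaded cells exposed to compound for 30 min before agonist addition, fluorescence change read 180 s after agonist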
rat P2X7 [4] = target: T2, rat P2X7; test: Ca2+ flux (FLIPR) in 1321N1 cells expressing recombinant rat P2X7 channel; format: cell-based; conditions: 250 μM BzATP;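 also: Calcium-4 dye fluorescence change read 180 s after agonist addition, following 30 min cell preincubation with test compound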

Amino acid sequences for entries named in this document (tags omitted). A change or cut given only in a name is not applied to a line headed by its entry.
UniProt Q99572: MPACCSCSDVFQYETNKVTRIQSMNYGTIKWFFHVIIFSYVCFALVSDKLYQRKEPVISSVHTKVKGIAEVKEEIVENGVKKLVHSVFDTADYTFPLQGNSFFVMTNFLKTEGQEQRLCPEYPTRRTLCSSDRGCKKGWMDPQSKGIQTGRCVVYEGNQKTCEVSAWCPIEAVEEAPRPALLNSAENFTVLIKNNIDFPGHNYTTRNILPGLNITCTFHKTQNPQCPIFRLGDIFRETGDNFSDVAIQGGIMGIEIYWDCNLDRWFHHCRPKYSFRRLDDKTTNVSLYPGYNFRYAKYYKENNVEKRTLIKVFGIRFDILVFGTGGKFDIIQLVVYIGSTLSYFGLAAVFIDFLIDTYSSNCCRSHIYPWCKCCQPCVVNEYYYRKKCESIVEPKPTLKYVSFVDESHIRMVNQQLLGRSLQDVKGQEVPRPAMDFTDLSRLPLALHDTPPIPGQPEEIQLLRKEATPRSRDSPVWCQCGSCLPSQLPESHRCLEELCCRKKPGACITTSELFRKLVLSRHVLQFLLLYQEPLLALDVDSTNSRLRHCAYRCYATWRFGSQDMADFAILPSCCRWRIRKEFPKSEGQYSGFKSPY
UniProt Q64663: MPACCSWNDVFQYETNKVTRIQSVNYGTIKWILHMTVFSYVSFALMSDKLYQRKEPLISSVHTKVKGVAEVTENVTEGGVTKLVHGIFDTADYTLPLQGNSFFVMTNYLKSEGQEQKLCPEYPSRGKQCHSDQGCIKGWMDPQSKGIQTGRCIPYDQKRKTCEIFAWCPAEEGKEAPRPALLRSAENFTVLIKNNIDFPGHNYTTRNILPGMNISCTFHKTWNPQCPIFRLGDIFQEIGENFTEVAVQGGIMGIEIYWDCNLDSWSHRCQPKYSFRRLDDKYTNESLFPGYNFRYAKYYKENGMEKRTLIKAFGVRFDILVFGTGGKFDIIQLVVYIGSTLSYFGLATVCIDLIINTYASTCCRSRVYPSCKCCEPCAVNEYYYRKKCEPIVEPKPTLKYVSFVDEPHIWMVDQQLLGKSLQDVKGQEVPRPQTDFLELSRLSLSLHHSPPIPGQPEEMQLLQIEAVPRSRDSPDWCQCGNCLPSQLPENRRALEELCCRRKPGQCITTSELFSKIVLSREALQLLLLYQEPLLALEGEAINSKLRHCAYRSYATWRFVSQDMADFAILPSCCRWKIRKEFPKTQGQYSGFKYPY

SMILES	Ki (P2X7 [1]) [nM]	Ki (rat P2X7 [2]) [nM]	IC50 (P2X7 [3]) [nM]	IC50 (rat P2X7 [4]) [nM]
C[C@@H]1c2nnn(-c3cnccn3)c2CCN1C(=O)c1cccc(C(F)(F)F)c1Cl (single isomer, unassigned) [Example 74, (4R*)-5-{[2-Chloro-3-(trifluoromethyl)phenyl]carbonyl}-4-methyl-1-pyrazin-2-yl-4,5,6,7-tetrahydro-1H-[1,2,3]triazolo[4,5-c]pyridine]	13200	2240	13400	19200
C[C@H]1c2nnn(-c3cnccn3)c2CCN1C(=O)c1cccc(C(F)(F)F)c1Cl (single isomer, unassigned) [Example 75, (4 S*)-5-{[2-Chloro-3-(trifluoromethyl)phenyl]carbonyl}-4-methyl-1-pyrazin-2-yl-4,5,6,7-tetrahydro-1H-[1,2,3]triazolo[4,5-c]pyridine]	44.7	6.2	3.4	9.1
C[C@@H]1c2nnn(-c3cc(F)ccn3)c2CCN1C(=O)c1cccc(C(F)(F)F)c1Cl (single isomer, unassigned) [Example 148, (R*)-(2-Chloro-3-(trifluoromethyl)phenyl)(1-(4-fluoropyridin-2-yl)-4-methyl-6,7-dihydro-1H-[1,2,3]triazolo[4,5-c]pyridin-5(4H)-yl)methanone]	31.6		8.5	11.8
C[C@H]1c2nnn(-c3cc(F)ccn3)c2CCN1C(=O)c1cccc(C(F)(F)F)c1Cl (single isomer, unassigned) [Example 149, (S*)-(2-Chloro-3-(trifluoromethyl)phenyl)(1-(4-fluoropyridin-2-yl)-4-methyl-6,7-dihydro-1H-[1,2,3]triazolo[4,5-c]pyridin-5(4H)-yl)methanone]			2490	17300
COc1ccnc(-n2nnc3c2CCN(C(=O)c2cccc(C(F)(F)F)c2Cl)[C@H]3C)c1 (single isomer, unassigned) [Example 151, (R*)-(2-Chloro-3-(trifluoromethyl)phenyl)(1-(4-methoxypyridin-2-yl)-4-methyl-6,7-dihydro-1H-[1,2,3]triazolo[4,5-c]pyridin-5(4H)-yl)methanone]	50.1		5.7	21.6
COc1ccnc(-n2nnc3c2CCN(C(=O)c2cccc(C(F)(F)F)c2Cl)[C@@H]3C)c1 (single isomer, unassigned) [Example 152, (S*)-(2-Chloro-3-(trifluoromethyl)phenyl)(1-(4-methoxypyridin-2-yl)-4-methyl-6,7-dihydro-1H-[1,2,3]triazolo[4,5-c]pyridin-5(4H)-yl)methanone]			980	1980
C[C@H]1c2nnn(-c3ncc(F)cn3)c2CCN1C(=O)c1cccc(C(F)(F)F)c1F (single isomer, unassigned) [Example 178, (S*)-(2-fluoro-3-(trifluoromethyl)phenyl)(1-(5-fluoropyrimidin-2-yl)-4-methyl-6,7-dihydro-1H-[1,2,3]triazolo[4,5-c]pyridin-5(4H)-yl)methanone]			5.1	118
C[C@@H]1c2nnn(-c3ncc(F)cn3)c2CCN1C(=O)c1cccc(C(F)(F)F)c1F (single isomer, unassigned) [Example 190, (R*)-(2-fluoro-3-(trifluoromethyl)phenyl)(1-(5-fluoropyrimidin-2-yl)-4-methyl-6,7-dihydro-1H-[1,2,3]triazolo[4,5-c]pyridin-5(4H)-yl)methanone]			1560	1290
C[C@H]1Cc2c(nnn2-c2ncc(F)cn2)CN1C(=O)c1cccc(Cl)c1Cl (single isomer, unassigned) [Example 205, (6S*)-5-[(2,3-Dichlorophenyl)carbonyl]-1-(5-fluoropyrimidin-2-yl)-6-methyl-4,5,6,7-tetrahydro-1H-[1,2,3]triazolo[4,5-c]pyridine]	4		1	108
C[C@@H]1Cc2c(nnn2-c2ncc(F)cn2)CN1C(=O)c1ccc(F)c(Cl)c1Cl (single isomer, unassigned) [Example 214, (6R*)-5-[(2,3-Dichloro-4-fluorophenyl)carbonyl]-1-(5-fluoropyrimidin-2-yl)-6-methyl-4,5,6,7-tetrahydro-1H-[1,2,3]triazolo[4,5-c]pyridine]			8490	46200
C[C@H]1Cc2c(nnn2-c2ncc(F)cn2)CN1C(=O)c1ccc(F)c(Cl)c1Cl (single isomer, unassigned) [Example 215, (6S*)-5-[(2,3-Dichloro-4-fluorophenyl)carbonyl]-1-(5-fluoropyrimidin-2-yl)-6-methyl-4,5,6,7-tetrahydro-1H-[1,2,3]triazolo[4,5-c]pyridine]	10		2	1.9
Cc1cccnc1-n1nnc2c1CCN(C(=O)c1cccc(C(F)(F)F)c1Cl)[C@@H]2C (single isomer, unassigned) [Example 291, (R*)-(2-chloro-3-(trifluoromethyl)phenyl)(4-methyl-1-(3-methylpyridin-2-yl)-6,7-dihydro-1H-[1,2,3]triazolo[4,5-c]pyridin-5(4H)-yl)methanone]	21.9		99.1	1620
Cc1cccnc1-n1nnc2c1CCN(C(=O)c1cccc(C(F)(F)F)c1Cl)[C@H]2C (single isomer, unassigned) [Example 292, (S*)-(2-chloro-3-(trifluoromethyl)phenyl)(4-methyl-1-(3-methylpyridin-2-yl)-6,7-dihydro-1H-[1,2,3]triazolo[4,5-c]pyridin-5(4H)-yl)methanone]			10400	> 10000
O=C(c1cccc(Cl)c1Cl)N1CCc2c(ncn2-c2ccccc2)C1 [Example 3, (2,3-Dichlorophenyl)(1-phenyl-6,7-dihydro-1H-imidazo[4,5-c]pyridin-5(4H)-yl)methanone]	60.3			4480
CC1c2ncn(-c3ccccc3)c2CCN1C(=O)c1cccc(C(F)(F)F)c1Cl (stereo not drawn) [Example 12, (2-Chloro-3-(trifluoromethyl)phenyl)(4-methyl-1-phenyl-6,7-dihydro-1H-imidazo[4,5-c]pyridin-5(4H)-yl)methanone]	85.1	135	6.1	
O=C(c1cccc(C(F)(F)F)c1Cl)N1CCc2c(ncn2-c2ccccc2)C1CO (stereo not drawn) [Example 30, (5-{[2-Chloro-3-(trifluoromethyl)phenyl]carbonyl}-1-phenyl-4,5,6,7-tetrahydro-1H-imidazo[4,5-c]pyridin-4-yl)methanol]			1370	6140
O=C(c1cccc(C(F)(F)F)c1Cl)N1CCc2c(nnn2-c2cnccn2)C1 [Example 91, 5-{[2-Chloro-3-(trifluoromethyl)phenyl]carbonyl}-1-pyrazin-2-yl-4,5,6,7-tetrahydro-1H-[1,2,3]triazolo[4,5-c]pyridine]	23.4			1490
O=C(c1cccc(Cl)c1Cl)N1CCc2c(-c3ccccc3)n[nH]c2C1 [Example 100, 6-[(2,3-Dichlorophenyl)carbonyl]-3-phenyl-4,5,6,7-tetrahydro-1H-pyrazolo[3,4-c]pyridine]	75.9		6.2	1640
CC1c2nnn(-c3ncc(F)cn3)c2CCN1C(=O)c1cccc(C(F)(F)F)c1F (stereo not drawn) [Example 175, (2-fluoro-3-(trifluoromethyl)phenyl)(1-(5-fluoropyrimidin-2-yl)-4-methyl-6,7-dihydro-1H-[1,2,3]triazolo[4,5-c]pyridin-5(4H)-yl)methanone]	39.8		18.1	2880
CCc1nc2c(n1-c1ccccc1)CCN(C(=O)c1cccc(C(F)(F)F)c1Cl)C2C (stereo not drawn) [Example 184, (2-Chloro-3-(trifluoromethyl)phenyl)(2-ethyl-4-methyl-1-phenyl-6,7-dihydro-1H-imidazo[4,5-c]pyridin-5(4H)-yl)methanone]	372		106	1640
CC1Cc2c(nnn2-c2ncc(F)cn2)CN1C(=O)c1cccc(Cl)c1Cl (stereo not drawn) [Example 203, 5-[(2,3-Dichlorophenyl)carbonyl]-1-(5-fluoropyrimidin-2-yl)-6-methyl-4,5,6,7-tetrahydro-1H-[1,2,3]triazolo[4,5-c]pyridine]	7.9		10.5	113
Cc1cccnc1-n1nnc2c1CCN(C(=O)c1cccc(C(F)(F)F)c1Cl)C2C (stereo not drawn) [Example 259, (2-Chloro-3-(trifluoromethyl)phenyl)(4-methyl-1-(3-methylpyridin-2-yl)-6,7-dihydro-1H-[1,2,3]triazolo[4,5-c]pyridin-5(4H)-yl)methanone]	57.5		40.6	10100
C[C@H]1Cc2c(nnn2-c2ncc(F)cn2)CN1C(=O)c1cccc(C(F)(F)F)c1 [Example 304, (S)-(1-(5-fluoropyrimidin-2-yl)-6-methyl-6,7-dihydro-1H-[1,2,3]triazolo[4,5-c]pyridin-5(4H)-yl)(3-(trifluoromethyl)phenyl)methanone]	22.4		113	5650
O=C(c1ccc(Cl)cc1Cl)N1CCc2c(ncn2-c2ccc(F)cn2)C1 [Example 313, (2,4-dichlorophenyl)(1-(5-fluoropyridin-2-yl)-6,7-dihydro-1H-imidazo[4,5-c]pyridin-5(4H)-yl)methanone]				24700
O=C(c1cccc(C(F)(F)F)c1Cl)N1CCc2c(ncn2-c2ccc(F)cn2)C1 [Example 315, (2-chloro-3-(trifluoromethyl)phenyl)(1-(5-fluoropyridin-2-yl)-6,7-dihydro-1H-imidazo[4,5-c]pyridin-5(4H)-yl)methanone]	15.8			2490
Cc1nc2c(n1-c1ccccc1)CCN(C(=O)c1cccc(Cl)c1Cl)C2 [Example 331, (2,3-dichlorophenyl)(2-methyl-1-phenyl-6,7-dihydro-1H-imidazo[4,5-c]pyridin-5(4H)-yl)methanone]				4300
